{
  "source": "paper PMC7335050",
  "about": "“Characterization of an alternative BAK-binding site for BH3 peptides” (Nature Communications, 2020)",
  "key": {"BAKΔTM": {"molecular_target": "T1, BAKΔTM (Homo sapiens, UniProt Q16611)", "T1 construct": "BAKΔTM (GenBank BC004431, residues 1–186); His6; made in house; host or cells: E. coli BL21", "T1 sequence (Q16611 1-186)": "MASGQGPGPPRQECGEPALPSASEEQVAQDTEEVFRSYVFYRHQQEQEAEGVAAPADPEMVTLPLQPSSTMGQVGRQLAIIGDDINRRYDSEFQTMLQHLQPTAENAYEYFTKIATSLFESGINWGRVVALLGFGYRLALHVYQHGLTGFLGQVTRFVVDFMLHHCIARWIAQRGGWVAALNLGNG", "experiment": "SPR binding of BH3 peptides to immobilized BAKΔTM", "settings": "25 °C"}, "BAK (His6-BAKΔTM)": {"test_system": "BAK (His6-BAKΔTM)", "experiment": "Liposome permeabilization assay (FITC-dextran release) with BAK", "assay_type": "biochemical, human", "settings": "50 nM BAK + 50 nM BH3 peptide", "description": "1-Palmitoyl-2-oleoyl-sn-glycero-3-phosphocholine, 1-plamitoyl-2-oleoyl-sn-glycero-3-phosphoethanolamine, L-α-phosphatidyl-inositol, cardiolipin, cholesterol and 18:1 DGS-NTA(Ni) were mixed at a weight ratio of 36:22:9:8:20:5, and dried as thin films in glass test tubes under nitrogen for 16 h. To encapsulate FITC-labeled dextran 10 (F-d10), 50 mg F-d10 was added to 50 mg lipid in 1 ml of 150 KCl buffer containing 20 mM HEPES (pH 7.0), sonicated and extruded 15 times through a 400 nm polycarbonate membrane. Liposomes with F-d10 were further purified by gel filtration on Sephacryl S-300 HR (GE Healthcare). Phosphate was determined by colorimetric assay (Abcam, Cambridge, UK).\nRelease of F-d10 from large unilamellar vesicles (LUVs) was monitored by fluorescence dequenching[25] using a fluorimetric plate reader (Thermo Scientific) with SoftMax Pro software. After addition of purified His6-BAKΔTM and/or the BH3 peptides to LUVs (final lipid concentration 10 µg ml^−1), 96 well plates were incubated at 37 °C and recorded (excitation 485 nm, emission 538 nm) every 10 sec. FITC-labeled dextran release was calculated using the equation ((Fsample − Fblank)/(FTriton − Fblank) × 100%), where Fsample, Fblank, and FTriton are the fluorescence recorded for the reagent-, buffer-, and 1% Triton-treated LUVs, respectively."}, "[1]": {"test_system": "Bak in mitochondria from Bax−/− MEFs", "experiment": "Cytochrome c release from mitochondria of Bax−/− MEFs", "assay_type": "biochemical, mouse", "settings": "90 min at 25 °C, immunoblotting of supernatants and pellets; 10 μM highest concentration tested", "description": "Mitochondria[43] purified from Bax^−/− MEFs were incubated with the indicated concentrations of navitoclax, S63845 or BH3 peptides at 25 °C for 90 min. After centrifugation (10,000 g, 15 min) and washing, supernatants and pellets were analyzed by immunoblotting. Alternatively, His6-BAKΔTM was dialyzed against mitochondria (mito) buffer (150 mM KCl, 5 mM MgCl2, 1 mM EGTA, 25 mM HEPES, pH 7.5) and diluted into mito buffer with 5 mM DTT. Mitochondria purified from Bak^−/−Bax^−/− MEFs were then incubated with 2 μM His6-BAKΔTM and the indicated BH3 peptides (5 μM) at 25 °C for 90 min. After centrifugation (10,000 × g, 15 min) and washing, supernatants and pellets were analyzed by immunoblotting."}},
  "note": "pKd: −log10 of the molar value.",
  "data": [
    {"smiles": "CSCC[C@H](NC(=O)[C@H](CCCNC(=N)N)NC(=O)[C@H](CCCNC(=N)N)NC(=O)[C@H](CC(C)C)NC(=O)[C@H](CCC(=O)O)NC(=O)[C@H](CCCNC(=N)N)NC(=O)CNC(=O)[C@H](Cc1ccc(O)cc1)NC(=O)[C@H](CCCNC(=N)N)NC(=O)[C@H](CCC(N)=O)NC(=O)[C@H](C)NC(=O)[C@H](C)NC(=O)[C@@H](N)Cc1c[nH]c2ccccc12)C(=O)N[C@@H](CO)C(=O)N[C@@H](CC(=O)O)C(=O)N[C@@H](CCC(=O)O)C(=O)N[C@@H](Cc1ccccc1)C(=O)N[C@H](C(=O)N[C@@H](CC(=O)O)C(=O)N[C@@H](CO)C(=O)N[C@@H](Cc1ccccc1)C(=O)N[C@@H](CCCCN)C(=O)N[C@@H](CCCCN)C(=O)NCC(=O)N[C@@H](CC(C)C)C(=O)N1CCC[C@H]1C(=O)O)C(C)C", "note": "[BAD BH3, reference compound]", "values": [
      {"measurement": "pKd", "setting": "BAKΔTM; BAKΔTM immobilized on CM5 chip, steady-state analysis, three independent SPR assays, top concentrations not threefold above KD, read-out: Approximate dissociation constant ranges, KDs for BAK", "result": "< 5.00"},
      {"measurement": "Binding to BAKΔTM by SPR, in words", "setting": "BAKΔTM; immobilized BAKΔTM", "result": "much lower affinity"},
      {"measurement": "Increase of BAK-mediated liposome release, in words", "setting": "BAK (His6-BAKΔTM)", "result": "did not appreciably increase"},
      {"measurement": "Concentration that induced cytochrome c release", "setting": "[1]", "result": "> 10", "unit": "µM"}
    ]}
  ]
}
